Laboratory results from paper PMC8530978 (Bioorganic chemistry, 2021).

Test system: HeLaM cells
Experiment: Phase contrast time lapse microscopy, mitotic duration
Format: cell-based
Settings: asynchronous HeLaM cells, images every 12 min

With `O=C(CCCCCCC(=O)Nc1ccccc1)NO` [SAHA, reference compound] the “mitotic duration / mitotic arrest” value was 3 h.
